Values quoted from earlier work in patent US20110217355A1, “CONTACT LENS BASED BIOACTIVE AGENT DELIVERY SYSTEM” (priority 2007, published 2011).

System: ocular surface
Conditions: cited from earlier work

For POE (20) stearyl ether [Brij 78], the “toxicity in ocular studies” value (concentrations as large as 2% (w/w)) is given as “negligible toxicity” and the “toxic effects on the ocular surface” value (rabbits, 0.1 ml of 0.2% (20000 μg/ml) eye drops) is given as “does not cause toxic effects”.
